Test results published in patent publication US10112968B2, “Inhibitors of protein methyltransferase DOT1L and methods of use thereof” (Epizyme, Inc., priority 2012, dated 2018).

Chains of the proteins cited; added tags and fusions are not shown. Lines headed by an entry give the natural chain unless they say otherwise; changes in a name come on top.
UniProt Q8TEK3: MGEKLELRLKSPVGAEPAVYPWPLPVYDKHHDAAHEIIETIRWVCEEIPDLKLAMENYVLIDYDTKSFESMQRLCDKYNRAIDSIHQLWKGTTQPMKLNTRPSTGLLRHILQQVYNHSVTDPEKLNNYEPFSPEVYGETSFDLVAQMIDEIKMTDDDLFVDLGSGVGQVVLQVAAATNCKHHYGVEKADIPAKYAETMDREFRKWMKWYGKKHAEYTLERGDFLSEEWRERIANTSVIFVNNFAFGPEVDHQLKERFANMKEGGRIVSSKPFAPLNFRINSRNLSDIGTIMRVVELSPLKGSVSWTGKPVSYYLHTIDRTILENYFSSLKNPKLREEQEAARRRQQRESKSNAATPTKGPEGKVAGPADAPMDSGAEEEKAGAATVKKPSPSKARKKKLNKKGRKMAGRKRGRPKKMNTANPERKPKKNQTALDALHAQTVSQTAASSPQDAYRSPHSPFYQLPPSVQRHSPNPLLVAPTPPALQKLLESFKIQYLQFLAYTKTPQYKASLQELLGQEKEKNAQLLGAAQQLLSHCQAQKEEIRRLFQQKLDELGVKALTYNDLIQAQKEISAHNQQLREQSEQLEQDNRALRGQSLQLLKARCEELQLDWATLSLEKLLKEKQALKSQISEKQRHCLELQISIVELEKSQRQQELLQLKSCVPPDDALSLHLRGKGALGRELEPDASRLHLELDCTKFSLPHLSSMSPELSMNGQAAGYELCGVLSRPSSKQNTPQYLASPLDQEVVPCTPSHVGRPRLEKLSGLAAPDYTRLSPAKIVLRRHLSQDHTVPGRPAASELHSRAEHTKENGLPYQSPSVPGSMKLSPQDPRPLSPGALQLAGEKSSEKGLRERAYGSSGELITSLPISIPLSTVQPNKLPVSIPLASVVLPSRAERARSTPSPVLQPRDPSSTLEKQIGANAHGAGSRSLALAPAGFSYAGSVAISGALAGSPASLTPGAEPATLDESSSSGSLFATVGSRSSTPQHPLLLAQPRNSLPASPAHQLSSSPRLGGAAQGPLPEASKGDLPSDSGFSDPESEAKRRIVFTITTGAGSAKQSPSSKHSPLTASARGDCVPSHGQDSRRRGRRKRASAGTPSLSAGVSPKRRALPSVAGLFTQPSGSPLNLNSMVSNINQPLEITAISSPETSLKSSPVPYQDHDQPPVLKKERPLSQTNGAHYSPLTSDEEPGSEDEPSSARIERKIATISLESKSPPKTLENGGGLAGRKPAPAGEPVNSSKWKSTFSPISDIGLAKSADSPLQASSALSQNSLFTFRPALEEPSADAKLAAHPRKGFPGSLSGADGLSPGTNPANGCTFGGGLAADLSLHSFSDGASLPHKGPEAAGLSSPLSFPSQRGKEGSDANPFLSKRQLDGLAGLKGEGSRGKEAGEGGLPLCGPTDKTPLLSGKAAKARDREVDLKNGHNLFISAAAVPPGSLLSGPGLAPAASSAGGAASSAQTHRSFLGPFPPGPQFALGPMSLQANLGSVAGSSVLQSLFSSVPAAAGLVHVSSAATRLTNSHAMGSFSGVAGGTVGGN

What was measured:
DOT1L [1] = molecular target: T1, DOT1L (Homo sapiens (Human), UniProt Q8TEK3); experiment: DOT1L enzymatic activity radiometric assay (methyl transfer from SAM to chicken erythrocyte nucleosomes); settings: read-out: DOT1L IC50
DOT1L [2] = molecular target: T1, DOT1L; experiment: Ligand association and dissociation rate constants by surface plasmon resonance (SPR); format: binding; settings: 25° C.

| Structure (SMILES) | IC50 (DOT1L [1]) | koff (DOT1L [2]) |
| --- | --- | --- |
| CN(C[C@H]1C[C@@H](n2ccc3c(N)ncnc32)[C@H](O)[C@@H]1O)[C@H]1C[C@@H](CCc2nc3cc(C(C)(C)C)ccc3[nH]2)C1 [Compound A69, (1R,2S,3R,5R)-3-(4-amino-7H-pyrrolo[2,3-d]pyrimidin-7-yl)-5-((((1r,3S)-3-(2-(5-(tert-butyl)-1H-benzo[d]imidazol-2-yl)ethyl)cyclobutyl)(methyl)amino)methyl)cyclopentane-1,2-diol] | 2.51 nM |  |
| CN(CCNC(=O)Nc1ccc(C(C)(C)C)cc1)C[C@H]1O[C@@H](n2cnc3c(N)ncnc32)[C@H](O)[C@@H]1O [Compound C94] |  | 0.2 ± 0.09 s⁻¹ |
